Yeast mating assay B: variants of the scFv Ab-14

Data: MIT Lincoln Laboratory AlphaSeq set, Li et al. 2023, doi:10.1038/s41467-023-39022-2, as distributed in FLAb.

Target peptide (SARS-CoV-2 spike, HR2 region): PDVDLGDISGINAS

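The starting antibody came from a phage panning campaign against this peptide. The variants were designed computationally from a first round of random CDR variants and then made and measured. Group labels follow the data file (Ctrl: baseline library sampled from a position-specific scoring matrix, with some repeated check sequences; Rand: our label for a block that the file lists under HC and that is probably the random mutants of the ten best first-round binders; En: ensemble of fine-tuned language models; GP: Gaussian process model; GPLM: also part of the Gaussian process libraries; HC: hill climbing; Gen: genetic algorithm; Gibbs: Gibbs sampling; a sequence that several methods proposed may carry one label only). In AlphaSeq, yeast of one mating type display the scFv and yeast of the other type display the target. Mating (16 h, 30 °C) was followed by selection of diploids and sequencing of their barcodes. Scores were corrected for input abundance and mapped to Kd with protein pairs of known affinity run in the same pool. Mating was done six times.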

Parent: Ab-14, a human scFv built as VH, a 15-residue (Gly4Ser)3 linker, VL. Only the CDRs of the heavy chain vary.
VH: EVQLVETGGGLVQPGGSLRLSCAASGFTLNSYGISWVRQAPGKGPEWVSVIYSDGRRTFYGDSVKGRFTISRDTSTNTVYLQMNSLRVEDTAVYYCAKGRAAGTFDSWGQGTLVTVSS
VL: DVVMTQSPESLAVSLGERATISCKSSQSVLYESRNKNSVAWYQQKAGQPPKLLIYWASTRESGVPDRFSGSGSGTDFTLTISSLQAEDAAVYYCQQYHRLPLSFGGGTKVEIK

Positions count from residue 1 of the parent VH; T28D puts D in place of T.
Variants here have at most six changes.
The Kd shown is the geometric mean over detected replicates; a lower Kd is a better binder.
"no signal" marks a missing value. The strain was present, yet no cells mated with the target were sequenced in any replicate, which points to weak or no binding.
The list is sorted by this average, lowest first, undetected variants last.

The variant T28D/S31E/S53A/G61K/R100N/S107Q [En_HC] showed 280 pM (6 of 6 replicates).
The variant T28E/S31D/F59A/G61I [GP_HC] showed 940 pM (6 of 6 replicates).
The variant T28N/G61V/S63D/R100N [GPLM_Gibbs] showed 1.2 nM (6 of 6 replicates).
The variant R56M/G61S/A101E/S107T [GP_Gen] showed 1.4 nM (6 of 6 replicates).
The variant T28D/G61Q/S63D/R100N [GP_Gen] showed 1.4 nM (6 of 6 replicates).
The variant S53A/A101Q [Ctrl] showed 1.8 nM (6 of 6 replicates).
The variant T28Q/S53A/A101T [GPLM_Gen] showed 1.9 nM (6 of 6 replicates).
The variant T28D/G61K/A101T/S107K [GP_Gibbs] showed 2.8 nM (6 of 6 replicates).
The variant T28Q/S31E/G61K/R100Q/A101T [GP_Gibbs] showed 3.0 nM (6 of 6 replicates).
The variant T28S/G61K/S63Q/R100Q/A101T [GP_Gibbs] showed 3.8 nM (5 of 6 replicates).
The variant T28E/G61V/A101Q/S107T [GPLM_Gibbs] showed 4.1 nM (6 of 6 replicates).
The variant T28E/S31D/G61I/A101F [GP_HC] showed 4.6 nM (6 of 6 replicates).
The variant F27T/S31L/Y60M/G61A/G99W/R100T [Ctrl] showed 4.7 nM (1 of 6 replicates).
The variant S53A/S63Q/R100G/A101H/T104S [Ctrl] showed 5.8 nM (1 of 6 replicates).
The variant G26S/S31E/G61M/A101T [GP_HC] showed 6.4 nM (3 of 6 replicates).
The variant R56K/S63D/A101V/S107V [GP_Gibbs] showed 7.3 nM (5 of 6 replicates).
The variant S31D/A101I/S107K [GPLM_HC] showed 8.0 nM (5 of 6 replicates).
The variant G61N [Ctrl] showed 9.4 nM (1 of 6 replicates).
The variant T28H/G61S/R100K [GPLM_Gen] showed 10 nM (6 of 6 replicates).
The variant G61D/R100Q/A101V [GP_HC] showed 11 nM (6 of 6 replicates).
The variant T28E/S31D/F59W/G61I [GP_HC] showed 21 nM (1 of 6 replicates).
The variant G61S/S63D/R100G [Ctrl] showed 42 nM (5 of 6 replicates).
The variant S31Q/S63E [Ctrl] showed 45 nM (5 of 6 replicates).
The variant S31E/T58C/G61L/R100N/D106T [Ctrl] showed 440 nM (5 of 6 replicates).
The variant L29E/S31D/S53F [Ctrl] showed no signal (0 of 6 replicates).
The variant G26K/T28S/G61A/A101T/S107K [GP_Gibbs] showed no signal (0 of 6 replicates).
The variant R100D/A102S [Ctrl] showed no signal (0 of 6 replicates).
The variant G26Y/G61D/R100Q/A101L [GPLM_HC] showed no signal (0 of 6 replicates).
The variant T28H/S31E/G103V/S107Q [GPLM_HC] showed no signal (0 of 6 replicates).
The variant S53A/G55D/S63D/F105N/D106K [Rand] showed no signal (0 of 6 replicates).
The variant G61D/R100Q/A101L/T104M [Rand] showed no signal (0 of 6 replicates).
The variant G61E/A102G [Rand] showed no signal (0 of 6 replicates).
The variant N30R/K65R/R100D/A102Q/S107A [Ctrl] showed no signal (0 of 6 replicates).
The variant T28E/A102R [Ctrl] showed no signal (0 of 6 replicates).
The variant L29R [Ctrl] showed no signal (0 of 6 replicates).
The variant G26D/I34G/F59I/G61L/S107L [Ctrl] showed no signal (0 of 6 replicates).
The variant T28D/R100E/T104I/D106N [GP_HC] showed no signal (0 of 6 replicates).
The variant N30Q/S31E/R100T/A102N [Ctrl] showed no signal (0 of 6 replicates).
The variant L29P/Y60I/A101E/S107C [Ctrl] showed no signal (0 of 6 replicates).

Extract of 3 entries:

Variant T28E/S31D/F59A/G61I [GP_HC] gave 940 pM (6 of 6 replicates).
Variant S31D/A101I/S107K [GPLM_HC] gave 8.0 nM (5 of 6 replicates).
Variant R56M/G61S/A101E/S107T [GP_Gen] gave 1.4 nM (6 of 6 replicates).

Three control strains display no target. For all heavy chain designs, 1% of the pairings with them gave a signal, with a median of 120 nM and one signal in twenty below 7.0 nM, so weak values seen in few replicates may be background.
The authors averaged sequences with at least three values out of six and counted those with two or fewer as poor binders.
Values of this round are not directly comparable with the first-round values of the same sequences.